Reference: patent US20110165266A1 (priority 2008, published 2011)

Tested on: VSV-G pseudotyped MLV vector (pLEGFP)
Experiment: Real-time quantitative PCR of viral DNA (reverse transcription products, integrated DNA) in CHO-K1 cells
Type: cell-based, murine leukemia virus (MLV)
Conditions: CHO-K1 cells passaged in 100 mM chlorate; 18 days post infection; FIG. 5D

## [O-][Cl+2]([O-])O [chlorate]
  integrated viral DNA, fold less than untreated CHO-K1 cells: 2.6 fold
